Patent US10633374B2, “Small molecule based antibody-recruiting compounds for cancer treatment” (YALE UNIVERSITY, priority 2015, dated 2020)

Amino acid sequences for entries named in this document (tags omitted). Residues count along the entry.
UniProt Q03405, 23-305 limits assumed: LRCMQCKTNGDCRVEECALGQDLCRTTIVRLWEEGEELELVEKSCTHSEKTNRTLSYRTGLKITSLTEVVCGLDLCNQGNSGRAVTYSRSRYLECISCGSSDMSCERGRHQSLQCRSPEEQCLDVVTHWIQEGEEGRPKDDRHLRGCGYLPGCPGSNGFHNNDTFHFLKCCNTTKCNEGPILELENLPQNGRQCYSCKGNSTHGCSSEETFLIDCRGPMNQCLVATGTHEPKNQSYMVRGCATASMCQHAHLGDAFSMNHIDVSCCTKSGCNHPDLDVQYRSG

How the values were obtained:
A172 glioblastoma cells = experiment: Antibody-dependent cellular phagocytosis (ADCP) of A172 cells by U937 cells; assay type: cell-based, human; settings: tested form: ammonium formate salt
Protocol: ADCP experiments carried out via a dual channel flow cytometry assay and were performed by measuring the % phagocytosis of A172 human glioblastoma cells by IFN-gamma primed U937 macrophage effector cells each stained with FL-1 and FL-4 dyes respectively giving rise to double positive FL-1 and FL-4 fluorescence shifts accompanying phagocytosis. These assays were performed in the presence and absence of exogenously added anti-DNP antibodies and various concentrations of each ARM-U2 derivative. Control experiments were also performed to confirm that cellular phagocytosis is occurring and is dependent on ARM-U2 binding cell surface uPAR by • 1. Performing out competitions with exogenous uPAR, • 2. Performing out-competitions with 6-ABT-4 which should bind uPAR but not anti-DNP antibodies • 3. Performing ADCP at 4 degrees Celsius where phagocytosis cannot occur and • 4. Amnis microscopic analysis of double positives identified in the ADCP assay to undergo 6-ABT-1 dependent phagocytosis.
IFNγ-primed U937 cells were stained with DiD dye (final concentration 1.9 μM) for 30 min at 37° C. A172 target cells were prepared by staining adherent cells with DiO dye (Invitrogen; final concentration 1.9 μM), and then nonenzymatically detaching the cells with 0.5 mM EDTA and EGTA. Cells were counted with trypan blue staining to verify cell viability. To measure phagocytosis, 2.5×10^4 target cells were suspended in 25 ul phenol-free low-IgG RPMI media to which 25 ul of 100 nM anti-DNP antibody (rabbit polyclonal KLH IgG, Invitrogen-100× stock) containing media was added followed by the addition of 1 ul of ARM-U2 from 100×DMSO stocks or 6-ABT-4 from 100×DMSO stocks for compound out-competition experiments, followed by the addition of 50 ul of 10^5 U937 cells in the same RPMI Assay Media resulting in a final volume of 100 uL. This experimental setup yielded an effector-to-target ratio (E:T ratios) of 4:1. For out-competition studies with exogenous uPAR, 250 ul of A-172 target cells in assay media was added directly to lyophilized 100 ug uPAR (R@D systems) to yield an 8.4 uM stock uPAR concentration, this was then combined in the manner and order described above. Eppendorfs were centrifuged at 200 rcf for 2 min then incubated at 37° C. for 1 hour or at 4° C. for 1 hr in controls establishing real phagocytosis is indeed represented by double positives in flow cytometry. Phagocytosis was halted by placing tubes on ice. Flow cytometric measurements were then made using an Accuri C6 flow cytometer with forward scatter and side scatter gating parameters initially set collecting on live intact cells. The live cell population selected was further gated into four quadrants using dual FL-1 and FL-4 fluorescence enabling for the differentiation of effector only cells (top left quadrant-high FL-4), target only cells (bottom right quadrant-high FL-1 fluorescence), and double positive overlapping target and effector cells (top right quadrant-high FL-1 and FL-4 fluorescence). The upper right quadrant indicating the number of phagocytosed target cells was used to calculate the percent phagocytosis: % targets phagocytosed=[(double-positive cells)/(remaining target cells+double-positive cells)×100%]−background phagocytosis.

uPAR (uPA binding site) = uPAR (uPA binding site) (Homo sapiens, UniProt Q03405); experiment: Competitive ELISA uPAR binding assay (immobilized urokinase); settings: tested form: ammonium formate salt
Protocol: The affinity of ARM-U2 derivatives differing in both the length of the DNP-linker substituted at position 2 of ring C and the display of negative charge density (FIG. 8, Table 1) for uPAR were assayed using a competitive ELISA binding assay. The assay involves the immobilization of urokinase, a natural high affinity ligand for uPAR followed by the addition of a fixed concentration of recombinant uPAR protein and increasing concentrations of ARM-U2 which competes with urokinase for binding to the uPA binding site of uPAR. Following several washing steps, the amount of uPAR bound is quantified by a biotinylated anti-uPAR antibody and avidin-HRP and can be fit to a competitive binding model allowing for the extraction of the uPAR/ARM-U2 Kd.
All ARM-U2 derivatives were assessed for their ability to bind selectively to recombinant uPAR in vitro using a competitive ELISA binding assay. […] Selective binding to uPAR by ARM-U2 at the uPA binding site competes with uPAR-uPA binding which is required for a positive UV 450 nm absorbance signal. Increasing concentrations of ARM-U2 displace increasing amounts of uPAR from uPA which is detected by anti-uPAR/biotin labeled antibodies followed by avidin-HRP. […]

In the case of `O=C1c2ccccc2-c2onc3c(N4CCC[C@H](C(=O)NCCCOCCOCCOCCCNc5ccc([N+](=O)[O-])cc5[N+](=O)[O-])C4)cc(Nc4ccc(S(=O)(=O)O)cc4S(=O)(=O)O)c1c23`, the “ADCP efficacy at 4 degrees celcius” value (A172 glioblastoma cells; 4 °C) is reported as “complete loss of efficacy”, the “ADCP efficacy and potency compared to 1-ABT-1” value (A172 glioblastoma cells; U937 effector cells, anti-DNP antibodies) is reported as “significant increase in potency and efficacy” and the “concentrations at which phagocytosis declines (prozone effect)” value (A172 glioblastoma cells; downward slope of bell shaped curve) is reported as greater than 100 nM. For the same molecule, the “ADCP with 6-ABT-4 competitor” value (A172 glioblastoma cells; out-competition with 6-ABT-4) was “disrupt phagocytosis”, the “ADCP with exogenous uPAR” value (A172 glioblastoma cells; out-competition with exogenous uPAR) was “disrupt phagocytosis” and the Kd (uPAR (uPA binding site); read-out: calculated dissociation constant, uPAR binding) was 12 nM. The “uPAR-binding affinity relative to parent ARM-U2 derivative 1-ABT-1” value (uPAR (uPA binding site)) was “significant increase in affinity”.
